Where two headings read alike, the source gives them in different places.

Chains of the proteins cited; added tags and fusions are not shown.
UniProt P49840, whole entry: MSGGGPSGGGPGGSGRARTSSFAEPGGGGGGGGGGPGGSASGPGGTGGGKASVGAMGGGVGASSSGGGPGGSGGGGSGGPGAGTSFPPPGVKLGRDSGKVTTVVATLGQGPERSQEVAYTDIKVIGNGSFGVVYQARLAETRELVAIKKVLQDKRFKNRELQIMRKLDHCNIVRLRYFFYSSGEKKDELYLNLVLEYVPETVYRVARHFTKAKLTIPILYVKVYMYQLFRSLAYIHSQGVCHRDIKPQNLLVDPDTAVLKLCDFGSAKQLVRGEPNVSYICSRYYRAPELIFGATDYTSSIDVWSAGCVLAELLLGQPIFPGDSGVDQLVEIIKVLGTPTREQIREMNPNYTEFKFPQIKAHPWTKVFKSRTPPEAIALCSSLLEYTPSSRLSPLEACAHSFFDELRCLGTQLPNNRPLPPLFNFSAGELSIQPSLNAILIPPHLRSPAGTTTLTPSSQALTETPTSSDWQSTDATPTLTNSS
UniProt P49841, whole entry: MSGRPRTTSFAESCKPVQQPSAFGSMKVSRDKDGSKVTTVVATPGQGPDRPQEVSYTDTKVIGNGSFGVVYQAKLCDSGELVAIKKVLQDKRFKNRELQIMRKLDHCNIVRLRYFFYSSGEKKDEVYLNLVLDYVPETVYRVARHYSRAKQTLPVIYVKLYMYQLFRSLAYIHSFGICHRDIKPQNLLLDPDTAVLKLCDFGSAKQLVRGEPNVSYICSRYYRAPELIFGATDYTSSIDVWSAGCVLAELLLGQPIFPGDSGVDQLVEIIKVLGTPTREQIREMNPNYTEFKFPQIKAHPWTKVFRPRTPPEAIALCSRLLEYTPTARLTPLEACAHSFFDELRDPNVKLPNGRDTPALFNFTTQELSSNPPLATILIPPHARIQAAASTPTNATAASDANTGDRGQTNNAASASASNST

Test [1] concerns the target GSK3α (GST-full length GSK3α) (Homo sapiens (Human), UniProt P49840). Kind of test: GSK3α TR-FRET kinase assay. It is filed as biochemical. (Time-resolved FRET reads energy transfer from a long-lived donor to a nearby acceptor.)
The target in test [2] is GSK3b (GST-full length GSK3b) (Homo sapiens (Human), UniProt P49841). Put plainly: GSK3b TR-FRET kinase assay. It is filed as biochemical.
The mark [3] stands for this setting: read-out: GSK3-A TR-FRET BIOCHEMICAL (TR-FRET), IC50, 1 nM GSK3α, 4 μM ATP, 30 minute preincubation (Table 16).
Where [4] appears, read: read-out: GSK3-B TR-FRET BIOCHEMICAL (TR-FRET), IC50, 1 nM GSK3b, 2 μM ATP, 30 minute preincubation (Table 16).
Where [5] appears, read: read-out: GSK3-A TR-FRET BIOCHEMICAL (TR-FRET), IC50, 1 nM GSK3α, 4 μM ATP, 30 minute preincubation.
Setting [6] is: read-out: GSK3-B TR-FRET BIOCHEMICAL (TR-FRET), IC50, 1 nM GSK3b, 2 μM ATP, 30 minute preincubation.
[7] abbreviates: read-out: GSK3-A TR-FRET BIOCHEMICAL (TR-FRET), GMean, IC50, 1 nM GSK3α, 4 μM ATP, 30 minute preincubation, geometric mean.
The mark [8] stands for this setting: read-out: GSK3-B TR-FRET BIOCHEMICAL (TR-FRET), GMean, IC50, 1 nM GSK3b, 2 μM ATP, 30 minute preincubation, geometric mean.
The mark [9] stands for this setting: read-out: GSK3-A TR-FRET BIOCHEMICAL (TR-FRET);, 1 nM GSK3α, 4 μM ATP, 30 minute preincubation, Table 16.
The mark [10] stands for this setting: read-out: GSK3-B TR-FRET BIOCHEMICAL (TR-FRET);, 1 nM GSK3b, 2 μM ATP, 30 minute preincubation, Table 16.
Setting [11] is: read-out: GSK3-A (TR-FRET 1 mM ATP), GMean, IC50, 1 mM ATP, geometric mean.
[12] abbreviates: read-out: GSK3-B (TR-FRET 1 mM ATP), GMean, IC50, 1 mM ATP, geometric mean.

For the compound `CCC1(c2cccc(N(C)C(=O)C3CCOCC3)c2)C2=C(CC(C)(C)CC2=O)Nc2n[nH]cc21` (centres unmarked), the IC50 in test [1] (setting [3]) is below 0.1 µM; in test [2] (setting [4]), 0.1 to 1 µM.

On to `CCC1(c2cccc(C(F)(F)F)c2)C2=C(CC(C(C)(C)C)NC2=O)Nc2n[nH]cc21` (centres unmarked), for which the IC50 in test [1] (setting [5]) was below 0.1 µM; in test [2] (setting [6]), 0.1 to 1 µM.

Consider `CC[C@]1(c2cccc(-c3ccncc3C)c2)C2=C(C[C@]3(CCCOC3)NC2=O)Nc2n[nH]cc21`, for which the IC50 in test [1] (setting [7]) was 0.1 to 1 µM; in test [2] (setting [8]), 1 to 5 µM.

In the case of `CC[C@]1(c2ccc(OC(C)C)cc2)C2=C(CC(C)(C)CC2=O)Nc2n[nH]c(C(F)(F)F)c21`, the IC50 in test [1] (setting [9]) and in test [2] (setting [10]) was below 0.1 µM in each case.

As to `CCC1(c2cccc(S(=O)(=O)C(C)C)c2)C2=C(CC(C)(C)NC2=O)Nc2n[nH]c(C)c21` (centres unmarked) [Compound 947876], the IC50 in test [1] (setting [7]) and in test [2] (setting [8]) was below 0.1 µM each time.

`CCC1(c2cccc(C(F)(F)F)c2)C2=C(CC(C)(C)CC2=O)Nc2n[nH]c(C(F)(F)F)c21` (centres unmarked): the results for the IC50 in test [1] (setting [7]) and in test [2] (setting [8]) were 0.1 to 1 µM and 1 to 5 µM, respectively.

Turning to `CC[C@@]1(c2cccc(-c3ccnc(C)c3)c2)C2=C(Nc3n[nH]cc31)[C@@H]1CC[C@@H](C1)C2=O`, the figures for the IC50 in test [1] (setting [9]) and in test [2] (setting [10]) were below 0.1 µM and 0.1 to 1 µM, respectively.

`CC[C@]1(c2cccc(-c3ccncc3C)c2)C2=C(CC3(CCOCC3)NC2=O)Nc2n[nH]cc21`: the IC50 in test [1] (setting [11]) is 0.1 to 1 µM; in test [1] (setting [7]) it was below 0.1 µM; in test [2] (setting [12]), 1 to 5 µM; in test [2] (setting [8]), below 0.1 µM.

As for `CC[C@]1(c2cccc(-c3c(C)cncc3C)c2)C2=C(CC(C)(C)NC2=O)Nc2n[nH]cc21`, the IC50 in test [1] (setting [11]) is 0.1 to 1 µM; in test [1] (setting [7]), below 0.1 µM; in test [2] (setting [12]) it was 1 to 5 µM; in test [2] (setting [8]) it was below 0.1 µM.

For the compound `CC[C@]1(c2cccc(-c3ccnc4c3cnn4C)c2)C2=C(CC(C)(C)NC2=O)Nc2n[nH]cc21`, the IC50 is below 0.1 µM in test [1] (setting [3]) and 0.1 to 1 µM in test [2] (setting [4]).

On to `CC[C@@]1(c2cccc(-c3cnn(C)c3C)c2)C2=C(CC(C)(C)NC2=O)Nc2n[nH]c(C(F)(F)F)c21`, for which the IC50 in test [1] (setting [11]), in test [1] (setting [7]), in test [2] (setting [12]) and in test [2] (setting [8]) was below 0.1 µM each time.

In the case of `CC[C@@]1(c2cccc(-c3cnn(C)c3C)c2)C2=C(CC(C)(C)NC2=O)Nc2n[nH]c(C)c21`, the IC50 in test [1] (setting [5]) and in test [2] (setting [6]) was below 0.1 µM each time.

Turning to `CC[C@@]1(c2cccc(-c3cc(C)nnc3C)c2)C2=C(CC(C)(C)NC2=O)Nc2n[nH]c(C)c21`, the IC50 was below 0.1 µM in test [1] (setting [3]) and 0.1 to 1 µM in test [2] (setting [4]).

Take `CCC1(c2cccc(N(C)C(=O)c3ccn(C)n3)c2)C2=C(CC(C)(C)CC2=O)Nc2n[nH]cc21` (centres unmarked): the IC50 in test [1] (setting [3]) was below 0.1 µM; in test [2] (setting [4]) it was 0.1 to 1 µM.

As for `CC[C@@]1(c2cccc(-c3ccncc3C)c2)C2=C(C[C@]3(CCCOC3)NC2=O)Nc2n[nH]cc21`, the values for the IC50 in test [1] (setting [7]) and in test [2] (setting [8]) were 0.1 to 1 µM and 1 to 5 µM, respectively.

Take `CCc1cc(-c2cccc([C@@]3(CC)C4=C(CC(C)(C)NC4=O)Nc4n[nH]cc43)c2)ccn1`: the IC50 in test [1] (setting [7]) is below 0.1 µM; in test [2] (setting [8]), 0.1 to 1 µM.

For `CCC1(c2cccc(S(=O)(=O)C3CC3)c2)C2=C(CC(C)(C)NC2=O)Nc2n[nH]cc21` (centres unmarked) [Compound 946004], the IC50 in test [1] (setting [5]) and in test [2] (setting [6]) was below 0.1 µM throughout.

For the compound `CC[C@]1(c2cccc(-c3ccnc(C)c3F)c2)C2=C(CC(C)(C)CC2=O)Nc2n[nH]cc21`, the IC50 in test [1] (setting [11]) was 0.1 to 1 µM; in test [1] (setting [3]), below 0.1 µM; in test [2] (setting [12]), 1 to 5 µM; in test [2] (setting [4]), below 0.1 µM.

In the case of `CC[C@]1(c2cccc(C3CCOCC3)c2)C2=C(CC(C)(C)CC2=O)Nc2n[nH]cc21`, the results for the IC50 in test [1] (setting [7]) and in test [2] (setting [8]) were 1 to 5 µM and above 5 µM, respectively.

As for `CCC1(c2cccc(N(C)C(=O)COC)c2)C2=C(CC(C)(C)CC2=O)Nc2n[nH]cc21` (centres unmarked), the IC50 in test [1] (setting [3]) is below 0.1 µM; in test [2] (setting [4]), 0.1 to 1 µM.

Turning to `CC[C@]1(c2cccc(-c3cc[n+]([O-])cc3[S@@+](C)[O-])c2)C2=C(CC(C)(C)CC2=O)Nc2n[nH]cc21`, the IC50 in test [1] (setting [9]) is 0.1 to 1 µM; in test [2] (setting [10]), 1 to 5 µM.

On to `CCCc1cc(-c2cccc(C3(CC)C4=C(CC(C)(C)CC4=O)Nc4n[nH]cc43)c2)ccn1` (centres unmarked), for which the IC50 is below 0.1 µM in test [1] (setting [9]) and 0.1 to 1 µM in test [2] (setting [10]).

On to `CC[C@]1(c2cccc(N(C)c3ncccn3)c2)C2=C(CC(C)(C)NC2=O)Nc2n[nH]c(C(F)(F)F)c21`, for which the IC50 in test [1] (setting [7]) was below 0.1 µM; in test [2] (setting [8]), 0.1 to 1 µM.

As for `CC[C@]1(c2cccc(Br)c2)C2=C(C[C@@H](C(F)(F)F)CC2=O)Nc2n[nH]cc21`, the IC50 in test [1] (setting [7]) and in test [2] (setting [8]) was above 5 µM each time.

The values above are taken from patent US20250313563A1, “GLYCOGEN SYNTHASE KINASE 3 INHIBITORS AND USES THEREOF” (The Broad Institute, Inc., priority 2022, published 2025).
